Laboratory results published in patent US10183912B2, “HDMX inhibitors and their use for cancer treatment” (priority 2014, dated 2019).

Tested on: OCI cell line

`[N-]=[N+]=Nc1c2ccccc2nc2cc([N+](=O)[O-])ccc12` was tested, and the IC50 was 9.5 µM.
